Data: article PMC12487681

Chains of the proteins cited; added tags and fusions are not shown. Residues count along the entry.
UniProt P54687, whole entry: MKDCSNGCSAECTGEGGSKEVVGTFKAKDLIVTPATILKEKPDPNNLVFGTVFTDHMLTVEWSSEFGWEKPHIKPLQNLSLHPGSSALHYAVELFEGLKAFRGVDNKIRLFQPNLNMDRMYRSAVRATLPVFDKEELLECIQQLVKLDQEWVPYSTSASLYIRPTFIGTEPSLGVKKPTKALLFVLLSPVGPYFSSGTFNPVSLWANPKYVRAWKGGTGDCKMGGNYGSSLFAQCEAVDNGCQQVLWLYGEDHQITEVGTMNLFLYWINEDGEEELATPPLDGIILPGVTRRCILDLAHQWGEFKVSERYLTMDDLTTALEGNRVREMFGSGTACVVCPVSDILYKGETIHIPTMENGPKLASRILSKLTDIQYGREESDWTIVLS
UniProt O15382, 28-392 limits assumed: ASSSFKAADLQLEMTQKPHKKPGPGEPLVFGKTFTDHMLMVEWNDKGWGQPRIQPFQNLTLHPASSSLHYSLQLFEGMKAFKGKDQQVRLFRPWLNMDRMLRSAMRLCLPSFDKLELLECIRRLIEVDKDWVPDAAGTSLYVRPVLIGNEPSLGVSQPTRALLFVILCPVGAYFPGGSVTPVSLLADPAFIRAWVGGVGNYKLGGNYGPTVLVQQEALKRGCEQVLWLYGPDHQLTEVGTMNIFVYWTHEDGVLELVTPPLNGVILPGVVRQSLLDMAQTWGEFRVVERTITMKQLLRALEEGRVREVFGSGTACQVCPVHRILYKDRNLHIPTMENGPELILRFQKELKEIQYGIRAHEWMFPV

Experiments:
[1] = molecular target: cytosolic branched-chain amino acid transaminase (BCATc, hBCATc, hBCAT1) (Homo sapiens, UniProt P54687); test: cell-free enzyme-coupled assay with recombinant enzyme (Glutamate-Glo luminescence readout), 10-point dose-response
[2] = molecular target: mitochondrial branched-chain amino acid transaminase (BCATm, hBCATm, hBCAT2) (Homo sapiens, UniProt O15382); test: as above

IC50 [1]: 508 nM
IC50 [2]: 17 nM
Compound: CNC(=O)c1cc2nc(-c3ccccn3)n([C@@H]3CCC[C@H](NC(=O)c4ccc(Br)s4)C3)c2cc1F
